Assay results from US8822407B2, “Preparation of conjugates comprising adenine derivatives and allergenic proteins and their use for specific immunotherapy of allengenic diseases” (Universita' Degli Studi di Firenze, priority 2010, dated 2014).

Experiments:
[1] = tested on: purified CD14+ cells; assay: Cytokine production by purified CD14+ cells (ELISA of supernatants, 36 hrs); type: cell-based, human; conditions: Table A
Description: Circulating mononuclear cells (MNC) are isolated by density gradient (Ficoll-Hypaque) using buffy coats from 14 normal donors (Servizio Immunotrasfusionale e terapie cellulari, Azienda Ospedaliera Universitaria A. Meyer, Firenze). 200×10^6 MNC are separated by the use of a commercial kit (CD14 isolation kit, Miltenyi) by the addition of 400 μl anti-CD14 monoclonal antibody bound to iron beads followed by isolation on magnetic columns (LS column). 50×10^6 monocytes are recovered by positive selection and are extensively washed with calcium and magnesium-free sterile PBS and then seeded in complete medium plus 10% foetal calf serum in 24 flat bottomed plates at the concentration of 1×10^6/ml. […] The plates are incubated for 36 hrs at 37° C. in 5% CO2 humidified atmosphere and the supernatants are collected after centrifugation at 1200 rpm, aliquoted and then stored at −20° C. up to the assay. […]
(§1) For the determination of cytokines and chemokines of the innate immunity, commercial ELISAs have been used: IL-12p40 (Cytoscreen, Biosource Int, Camarillo, Calif.), IFN-alfa (Cytoscreen), TNF-alfa (Cytoscreen), IL-10 (Pharmingen), IL-6 and CXCL10 (R&D System). 100 μl/well of single supernatants are incubated in flat bottomed plates as specified by the productors and the amounts of the single cytokines are expressed as pg/ml on the basis of a reference curve by using recombinant cytokines. […]

[2] = tested on: purified BDCA4+ cells; assay: Cytokine production by purified BDCA4+ cells (plasmacytoid dendritic cells), ELISA; type: cell-based, human; conditions: Table C, Donor #2, dose 2.5 μg/ml
Description: The preparation of purified BDCA4+ cells has been obtained in a similar way starting from MNC of buffy coats of the same 14 healthy donors. After density gradient separation, 500×10^6 MNC have been isolated by the use of a commercial kit (BDCA4 isolation kit, Miltenyi) by addition of 500 μl anti-BDCA4 monoclonal antibody bound to iron beads followed by separation on magnetic columns (LS column). By positive selection 5×10^6 plasmacytoid dendritic cells (PDCs) are recovered, extensively washed with calcium and magnesium-free sterile PBS and seeded in complete medium plus 10% foetal calf serum in 24-flat bottomed plates at the concentration 1×10^6/ml. […] The plates are incubated for 36 hrs at 37° C. in 5% CO2 humidified atmosphere and the supernatants are collected after centrifugation at 1200 rpm, aliquoted and then stored at −20° C. up to the assay. […]
as §1

## Nc1nc(SCCCC(=O)ON2C(=O)CCC2=O)nc2c1nc(O)n2Cc1ccccc1 [SA-26E, 4-(6-Amino-9-benzyl-8-hydroxy-9H-purin-2-ylsulfanyl)-butyric acid 2,5-dioxo-pyrrolidin-1-yl ester]
[1]; Donor #1, dose 2.5 μg/ml
  TNF-alfa production: 597 pg/mL
[1]; Donor #2, dose 2.5 μg/ml
  IL-10 production: 243 pg/mL
[2]
  IL-10 production: 209 pg/mL
